The values below come from patent US20100075972A1, “AGENT FOR TREATMENT OF MULTIPLE SCLEROSIS” (Kowa Co., Ltd., priority 2007, published 2010).

Assay [1] deals with TNF-α mRNA. Put plainly: TNF-α mRNA expression in the spinal cord of experimental autoimmune encephalomyelitis mice (real-time PCR). In kind it is in vivo. The note with it: day 42, spinal cord of EAE mice of Example 1, corrected by ribosomal RNA. The source says:
(§1) On day 42, the spinal cord was removed from the mice employed in Example 1, and total RNA was recovered by use of ISOGEN (Nippon Gene Co., Ltd.). For comparison, similarly, the spinal cord was extirpated from unsensitized normal mice, and was employed for the below-described quantitative determination. cDNA was synthesized from the thus-obtained total RNA by use of a reverse transcriptase, and the amount of mRNA of the following gene (F4/80, TNF-α, IL-1β, or IL-6) was quantitatively determined by means of an ABI PRISM 7900HT system (Applied Biosystems) through real-time PCR employing a TaqMan probe according to the protocol of Applied Biosystems. Meanwhile, the amount of ribosomal RNA was determined, and employed for correction.

For assay [2], the system named is F4/80 mRNA. The assay can be described thus: F4/80 mRNA expression in the spinal cord of experimental autoimmune encephalomyelitis mice (real-time PCR). In kind it is in vivo. The conditions noted are these: day 42, spinal cord of EAE mice of Example 1, corrected by ribosomal RNA.
Source text: as §1
For orientation: Quantitative PCR measures a nucleic acid by following its amplification.

The test system of assay [3] is IL-6 mRNA. Put plainly: IL-6 mRNA expression in the spinal cord of experimental autoimmune encephalomyelitis mice (real-time PCR). The assay is classed as in vivo. The conditions noted are these: day 42, spinal cord of EAE mice of Example 1, corrected by ribosomal RNA.
Source text: as §1

Assay [4] concerns experimental autoimmune encephalomyelitis model. Put plainly: experimental autoimmune encephalomyelitis mouse model, symptom scores. The assay is classed as in vivo, C57BL/6 mice. The note with it: EAE mice. The protocol:
2-Benzyl-5-(4-chlorophenyl)-6-[4-(methylthio)phenyl]-2H-pyridazin-3-one (hereinafter will be referred to as “drug A”) was administered to mice of an experimental autoimmune encephalomyelitis model, and symptoms of the disease were observed, whereby the drug was evaluated. The experimental autoimmune encephalomyelitis model is established by immunizing a mouse with myelin protein (i.e., myelin-sheath-constituting protein), thereby causing T-cell-mediated autoimmune inflammation in the central nervous system.
Seven-week-old female C57BL/6 mice (Charles River Laboratories Japan, Inc.) were employed. A sensitizing emulsion for causing the mice to develop experimental autoimmune encephalomyelitis was prepared by mixing myelin oligodendrocyte glycoprotein (MOG) 35-55 (Alexis Biochemical) with an equiamount of complete Freund's adjuvant H37Ra (DIFCO) so that the MOG concentration was 2 mg/mL, followed by homogenization under ice cooling by means of Handy Micro Homogenizer (product of Microtec Co., Ltd.). The thus-prepared emulsion (0.1 mL) was intradermally administered to each mouse at its tail base for initial sensitization. On the same day, pertussis toxin dissolved in saline (500 ng/0.3 mL) was intravenously injected to the tail. Two days after initial sensitization, in a manner similar to that described above, pertussis toxin (500 ng/0.3 mL) was intravenously injected for booster. Drug A was orally administered (30 mg/kg) twice a day in the morning (9:00 to 11:00) and in the evening (15:30 to 17:30) from the day following the initial sensitization to 42 days after sensitization. IFN-β (Nihon Schering) was subcutaneously administered every other day at a dose of 10,000 IU/individual.
The drugs were evaluated from the condition of experimentally created autoimmune encephalomyelitis according to the following ratings:
score 1: limp tail or abnormal gait;
score 2: limp tail and abnormal gait;
score 3: paralysis of one limb;
score 4: paralysis of two or more limbs; and […]

Assay [5] has as its system IL-1β mRNA. Put plainly: IL-1β mRNA expression in the spinal cord of experimental autoimmune encephalomyelitis mice (real-time PCR). The assay is classed as in vivo. The note with it: day 42, spinal cord of EAE mice of Example 1, corrected by ribosomal RNA.
Source text: as §1

B1: IFN-β: IFN-β (Nihon Schering), interferon-β pharmaceutical product used in current therapy for multiple sclerosis; comparator (protein, UniProt P01574 22-187, looked up)
Interferon beta: MSYNLLGFLQRSSNFQCQKLLWQLNGRLEYCLKDRMNFDIPEEIKQLQQFQKEDAALTIYEMLQNIFAIFRQDSSSTGWNETIVENLLANVYHQINHLKTVLEEKLEKEDFTRGKLMSSLHLKRYYGRILHYLKAKEYSHCAWTIVRVEILRNFYFINRLTGYLRN
For the molecule B1, in assay [1], the “expression of TNF-α mRNA in spinal cord” value is recorded as “not reduced”. In assay [2], the “amount of expression of mRNA of F4/80 in spinal cord” value is given as “lower than that of drug A”. Besides, the “expression of IL-6 mRNA in spinal cord” value in assay [3] is on record as “reduced”. In addition, in assay [4] (10 per group, Drug A 30 mg/kg orally twice a day to day 42, IFN-β 10,000 IU/individual subcutaneously every other day), the “Incidence rate, symptoms corresponding to score 2 or worse” value was 5/10. Further, in assay [4] (42 days after sensitization, Drug A 30 mg/kg orally twice a day, IFN-β 10,000 IU/individual s.c. every other day), the “death case during the experiment (score 5)” value is 12, 37, and 40 days after sensitization. Also, in assay [4] (average ± standard error, Drug A 30 mg/kg orally twice a day, IFN-β 10,000 IU/individual subcutaneously every other day), the “Days required for onset, symptoms corresponding to score 2 or worse” value came out at 27.4 ± 3.6 days. Also, the “expression of IL-1β mRNA in spinal cord” value in assay [5] was “reduced”.
